Test results taken from the supplement of paper PMC11403291.

Amino acid sequences for entries named in this document (tags omitted). A change or cut given only in a name is not applied to a line headed by its entry.
UniProt Q9P0L2: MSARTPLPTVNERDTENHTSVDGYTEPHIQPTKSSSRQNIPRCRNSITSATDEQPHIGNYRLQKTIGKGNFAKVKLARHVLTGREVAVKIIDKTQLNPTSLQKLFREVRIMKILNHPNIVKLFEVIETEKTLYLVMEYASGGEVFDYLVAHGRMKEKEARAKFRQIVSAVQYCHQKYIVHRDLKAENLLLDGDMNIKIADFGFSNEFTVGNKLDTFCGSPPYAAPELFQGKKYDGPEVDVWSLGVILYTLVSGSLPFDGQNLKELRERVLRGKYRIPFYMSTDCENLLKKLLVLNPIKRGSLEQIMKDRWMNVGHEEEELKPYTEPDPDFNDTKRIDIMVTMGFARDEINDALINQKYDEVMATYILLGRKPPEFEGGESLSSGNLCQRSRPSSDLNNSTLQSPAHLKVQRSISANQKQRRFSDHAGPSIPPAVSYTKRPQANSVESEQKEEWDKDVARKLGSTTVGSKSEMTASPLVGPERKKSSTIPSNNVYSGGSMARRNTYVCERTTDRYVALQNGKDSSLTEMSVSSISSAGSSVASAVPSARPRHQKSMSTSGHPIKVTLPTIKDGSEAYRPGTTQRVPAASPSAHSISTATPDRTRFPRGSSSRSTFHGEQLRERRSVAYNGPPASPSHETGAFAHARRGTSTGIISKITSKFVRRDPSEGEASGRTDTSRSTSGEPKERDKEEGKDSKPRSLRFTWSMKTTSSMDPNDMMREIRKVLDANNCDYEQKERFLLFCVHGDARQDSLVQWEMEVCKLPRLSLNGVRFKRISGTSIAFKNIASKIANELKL
UniProt O95819: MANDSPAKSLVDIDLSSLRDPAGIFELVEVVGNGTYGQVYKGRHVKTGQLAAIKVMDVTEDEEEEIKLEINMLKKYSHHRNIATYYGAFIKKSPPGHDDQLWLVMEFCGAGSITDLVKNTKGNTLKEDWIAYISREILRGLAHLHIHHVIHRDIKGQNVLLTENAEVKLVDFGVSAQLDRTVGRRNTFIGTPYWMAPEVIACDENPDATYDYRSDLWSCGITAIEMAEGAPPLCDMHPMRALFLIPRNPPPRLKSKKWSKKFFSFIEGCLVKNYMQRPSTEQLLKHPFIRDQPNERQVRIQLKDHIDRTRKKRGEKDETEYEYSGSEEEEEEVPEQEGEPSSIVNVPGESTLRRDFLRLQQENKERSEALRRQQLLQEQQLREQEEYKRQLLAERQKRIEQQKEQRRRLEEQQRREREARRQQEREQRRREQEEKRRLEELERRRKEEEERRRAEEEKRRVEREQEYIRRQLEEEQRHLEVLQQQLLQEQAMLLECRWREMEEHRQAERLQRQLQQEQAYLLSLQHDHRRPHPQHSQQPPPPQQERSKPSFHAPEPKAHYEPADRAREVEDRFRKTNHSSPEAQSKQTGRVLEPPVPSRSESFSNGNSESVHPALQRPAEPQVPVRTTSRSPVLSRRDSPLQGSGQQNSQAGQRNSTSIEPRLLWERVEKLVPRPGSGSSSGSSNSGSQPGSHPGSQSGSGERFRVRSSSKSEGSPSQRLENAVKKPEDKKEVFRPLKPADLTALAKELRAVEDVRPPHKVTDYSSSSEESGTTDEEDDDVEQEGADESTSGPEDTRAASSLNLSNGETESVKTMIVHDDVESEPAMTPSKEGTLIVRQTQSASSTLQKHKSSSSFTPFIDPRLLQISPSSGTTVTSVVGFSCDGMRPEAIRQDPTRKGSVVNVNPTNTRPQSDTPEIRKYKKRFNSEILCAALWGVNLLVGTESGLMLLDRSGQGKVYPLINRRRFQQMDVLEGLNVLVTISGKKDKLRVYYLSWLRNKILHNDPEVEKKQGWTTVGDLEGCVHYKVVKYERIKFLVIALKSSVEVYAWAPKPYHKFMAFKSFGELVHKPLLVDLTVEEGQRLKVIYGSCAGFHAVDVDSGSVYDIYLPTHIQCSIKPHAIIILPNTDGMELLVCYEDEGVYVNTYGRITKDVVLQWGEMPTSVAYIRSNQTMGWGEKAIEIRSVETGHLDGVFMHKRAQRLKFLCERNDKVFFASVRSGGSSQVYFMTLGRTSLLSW
UniProt Q96GD4, whole entry: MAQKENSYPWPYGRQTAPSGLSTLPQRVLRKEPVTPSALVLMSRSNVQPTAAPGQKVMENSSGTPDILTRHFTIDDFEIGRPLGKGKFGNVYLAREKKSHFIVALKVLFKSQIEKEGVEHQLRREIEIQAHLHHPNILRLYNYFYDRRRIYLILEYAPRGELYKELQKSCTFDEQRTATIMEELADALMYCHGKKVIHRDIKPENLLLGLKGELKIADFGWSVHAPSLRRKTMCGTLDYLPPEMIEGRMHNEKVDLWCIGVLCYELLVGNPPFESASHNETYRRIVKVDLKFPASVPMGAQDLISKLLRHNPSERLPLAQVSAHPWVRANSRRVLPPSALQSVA
UniProt Q06187: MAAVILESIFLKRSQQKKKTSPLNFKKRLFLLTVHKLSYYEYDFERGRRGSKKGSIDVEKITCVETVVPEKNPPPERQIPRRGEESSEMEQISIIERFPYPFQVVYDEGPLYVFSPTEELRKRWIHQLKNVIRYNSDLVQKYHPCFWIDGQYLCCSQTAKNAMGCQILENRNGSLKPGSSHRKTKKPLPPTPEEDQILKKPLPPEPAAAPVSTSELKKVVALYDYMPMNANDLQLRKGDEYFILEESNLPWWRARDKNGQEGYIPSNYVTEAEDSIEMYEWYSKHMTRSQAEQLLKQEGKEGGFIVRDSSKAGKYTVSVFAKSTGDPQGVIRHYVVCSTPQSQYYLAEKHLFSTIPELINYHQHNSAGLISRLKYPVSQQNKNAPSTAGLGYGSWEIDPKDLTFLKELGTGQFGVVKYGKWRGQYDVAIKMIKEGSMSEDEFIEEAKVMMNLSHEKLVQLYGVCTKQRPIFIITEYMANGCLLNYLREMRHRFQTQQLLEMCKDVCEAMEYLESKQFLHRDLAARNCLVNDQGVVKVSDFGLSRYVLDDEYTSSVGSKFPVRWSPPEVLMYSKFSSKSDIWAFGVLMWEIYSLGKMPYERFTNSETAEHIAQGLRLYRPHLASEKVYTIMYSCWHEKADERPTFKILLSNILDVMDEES
UniProt Q16584: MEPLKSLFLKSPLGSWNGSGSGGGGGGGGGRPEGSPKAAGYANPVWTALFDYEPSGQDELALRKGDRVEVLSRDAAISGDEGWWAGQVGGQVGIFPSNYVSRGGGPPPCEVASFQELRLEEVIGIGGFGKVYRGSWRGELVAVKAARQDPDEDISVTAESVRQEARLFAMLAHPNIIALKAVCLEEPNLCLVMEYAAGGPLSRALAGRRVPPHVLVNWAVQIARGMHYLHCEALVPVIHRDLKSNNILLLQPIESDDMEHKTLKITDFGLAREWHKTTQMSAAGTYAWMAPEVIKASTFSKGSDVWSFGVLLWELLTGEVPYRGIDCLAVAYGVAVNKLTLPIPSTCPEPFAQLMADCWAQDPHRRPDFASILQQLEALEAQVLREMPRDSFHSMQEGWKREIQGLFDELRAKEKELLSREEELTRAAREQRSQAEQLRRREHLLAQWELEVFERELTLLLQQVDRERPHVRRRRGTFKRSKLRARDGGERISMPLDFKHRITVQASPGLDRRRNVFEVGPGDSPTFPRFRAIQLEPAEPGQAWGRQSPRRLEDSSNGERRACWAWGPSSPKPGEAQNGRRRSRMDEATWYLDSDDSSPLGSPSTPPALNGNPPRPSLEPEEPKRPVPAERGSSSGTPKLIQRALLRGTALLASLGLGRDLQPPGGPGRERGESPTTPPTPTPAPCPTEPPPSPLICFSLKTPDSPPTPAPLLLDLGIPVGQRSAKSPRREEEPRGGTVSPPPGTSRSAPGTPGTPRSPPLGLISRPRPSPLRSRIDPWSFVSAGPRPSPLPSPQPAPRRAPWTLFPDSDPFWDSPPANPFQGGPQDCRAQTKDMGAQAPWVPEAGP
UniProt Q13164: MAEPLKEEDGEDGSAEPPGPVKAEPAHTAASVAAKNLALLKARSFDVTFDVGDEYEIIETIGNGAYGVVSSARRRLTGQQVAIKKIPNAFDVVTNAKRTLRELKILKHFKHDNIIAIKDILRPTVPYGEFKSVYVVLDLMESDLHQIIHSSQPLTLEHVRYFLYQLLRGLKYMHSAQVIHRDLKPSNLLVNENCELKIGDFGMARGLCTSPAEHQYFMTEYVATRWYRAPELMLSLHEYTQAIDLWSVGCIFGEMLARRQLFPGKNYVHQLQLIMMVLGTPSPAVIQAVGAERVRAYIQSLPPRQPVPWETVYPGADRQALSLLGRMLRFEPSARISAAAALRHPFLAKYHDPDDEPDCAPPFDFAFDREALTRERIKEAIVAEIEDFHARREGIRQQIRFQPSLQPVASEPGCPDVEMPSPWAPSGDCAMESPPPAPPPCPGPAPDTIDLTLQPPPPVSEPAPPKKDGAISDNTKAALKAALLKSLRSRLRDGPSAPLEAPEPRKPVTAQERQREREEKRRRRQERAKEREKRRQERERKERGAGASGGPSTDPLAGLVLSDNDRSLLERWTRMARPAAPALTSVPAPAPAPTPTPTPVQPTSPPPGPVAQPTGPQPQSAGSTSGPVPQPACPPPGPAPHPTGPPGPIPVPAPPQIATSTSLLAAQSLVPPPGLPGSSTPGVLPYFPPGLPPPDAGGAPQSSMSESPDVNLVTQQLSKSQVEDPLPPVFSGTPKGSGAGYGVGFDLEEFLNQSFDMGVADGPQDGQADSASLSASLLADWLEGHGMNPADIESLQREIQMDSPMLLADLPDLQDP
UniProt P21802, whole entry, looked up: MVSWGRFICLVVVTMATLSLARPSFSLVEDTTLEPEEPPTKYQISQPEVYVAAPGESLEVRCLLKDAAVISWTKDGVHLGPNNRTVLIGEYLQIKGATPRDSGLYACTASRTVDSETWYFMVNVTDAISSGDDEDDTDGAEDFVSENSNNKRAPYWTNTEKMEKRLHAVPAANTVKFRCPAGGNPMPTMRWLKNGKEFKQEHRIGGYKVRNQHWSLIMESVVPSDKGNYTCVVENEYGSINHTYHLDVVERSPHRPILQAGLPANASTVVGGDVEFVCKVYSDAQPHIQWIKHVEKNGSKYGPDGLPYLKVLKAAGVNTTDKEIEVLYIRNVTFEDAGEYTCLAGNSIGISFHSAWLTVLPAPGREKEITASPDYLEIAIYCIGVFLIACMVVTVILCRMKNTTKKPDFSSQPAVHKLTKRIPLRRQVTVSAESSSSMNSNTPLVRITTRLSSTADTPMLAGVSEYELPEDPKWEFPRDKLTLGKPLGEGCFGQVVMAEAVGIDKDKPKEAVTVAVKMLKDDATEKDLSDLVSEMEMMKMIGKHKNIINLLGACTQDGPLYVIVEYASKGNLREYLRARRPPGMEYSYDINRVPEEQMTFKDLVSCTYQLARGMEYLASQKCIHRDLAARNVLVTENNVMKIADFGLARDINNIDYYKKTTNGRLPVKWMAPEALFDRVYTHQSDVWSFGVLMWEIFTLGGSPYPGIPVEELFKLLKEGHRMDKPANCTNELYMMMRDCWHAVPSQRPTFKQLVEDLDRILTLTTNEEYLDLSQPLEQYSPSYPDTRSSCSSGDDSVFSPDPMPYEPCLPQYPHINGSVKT
UniProt P36507, whole entry: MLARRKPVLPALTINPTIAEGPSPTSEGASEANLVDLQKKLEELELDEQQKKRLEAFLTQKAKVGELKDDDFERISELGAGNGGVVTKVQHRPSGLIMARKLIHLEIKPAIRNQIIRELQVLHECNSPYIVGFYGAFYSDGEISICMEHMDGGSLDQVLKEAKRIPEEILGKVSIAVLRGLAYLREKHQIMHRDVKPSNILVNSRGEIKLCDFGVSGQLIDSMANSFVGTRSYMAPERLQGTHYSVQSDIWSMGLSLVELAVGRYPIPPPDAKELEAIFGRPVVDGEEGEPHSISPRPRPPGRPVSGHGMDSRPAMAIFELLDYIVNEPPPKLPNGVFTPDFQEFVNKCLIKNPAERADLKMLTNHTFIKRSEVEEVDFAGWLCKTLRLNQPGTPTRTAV
UniProt Q9NWZ3, whole entry: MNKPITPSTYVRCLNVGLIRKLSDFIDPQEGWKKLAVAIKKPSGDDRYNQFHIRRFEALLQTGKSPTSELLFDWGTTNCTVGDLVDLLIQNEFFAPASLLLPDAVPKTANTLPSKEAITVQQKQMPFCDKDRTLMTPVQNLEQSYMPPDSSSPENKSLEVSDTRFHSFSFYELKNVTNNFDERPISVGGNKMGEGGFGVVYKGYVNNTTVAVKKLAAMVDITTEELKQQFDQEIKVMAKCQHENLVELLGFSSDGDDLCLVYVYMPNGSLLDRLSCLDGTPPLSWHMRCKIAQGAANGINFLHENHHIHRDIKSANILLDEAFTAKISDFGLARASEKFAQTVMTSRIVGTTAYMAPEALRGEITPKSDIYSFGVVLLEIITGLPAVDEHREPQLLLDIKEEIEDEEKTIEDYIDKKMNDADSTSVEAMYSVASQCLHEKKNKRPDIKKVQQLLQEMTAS

How the values were obtained:
Test in all cases: apparent dissociation constant pKd app (kinobead competition) (-log10(M)); higher = stronger binding
[1] = target: MARK1 (UniProt Q9P0L2)
[2] = target: MAP4K4 (UniProt O95819)
[3] = target: AURKB (UniProt Q96GD4)
[4] = target: STK10 (UniProt O94804)
[5] = target: BTK (UniProt Q06187)
[6] = target: MAP3K11 (UniProt Q16584)
[7] = target: T1, EPHB2 (UniProt P29323)
T1 sequence (whole entry): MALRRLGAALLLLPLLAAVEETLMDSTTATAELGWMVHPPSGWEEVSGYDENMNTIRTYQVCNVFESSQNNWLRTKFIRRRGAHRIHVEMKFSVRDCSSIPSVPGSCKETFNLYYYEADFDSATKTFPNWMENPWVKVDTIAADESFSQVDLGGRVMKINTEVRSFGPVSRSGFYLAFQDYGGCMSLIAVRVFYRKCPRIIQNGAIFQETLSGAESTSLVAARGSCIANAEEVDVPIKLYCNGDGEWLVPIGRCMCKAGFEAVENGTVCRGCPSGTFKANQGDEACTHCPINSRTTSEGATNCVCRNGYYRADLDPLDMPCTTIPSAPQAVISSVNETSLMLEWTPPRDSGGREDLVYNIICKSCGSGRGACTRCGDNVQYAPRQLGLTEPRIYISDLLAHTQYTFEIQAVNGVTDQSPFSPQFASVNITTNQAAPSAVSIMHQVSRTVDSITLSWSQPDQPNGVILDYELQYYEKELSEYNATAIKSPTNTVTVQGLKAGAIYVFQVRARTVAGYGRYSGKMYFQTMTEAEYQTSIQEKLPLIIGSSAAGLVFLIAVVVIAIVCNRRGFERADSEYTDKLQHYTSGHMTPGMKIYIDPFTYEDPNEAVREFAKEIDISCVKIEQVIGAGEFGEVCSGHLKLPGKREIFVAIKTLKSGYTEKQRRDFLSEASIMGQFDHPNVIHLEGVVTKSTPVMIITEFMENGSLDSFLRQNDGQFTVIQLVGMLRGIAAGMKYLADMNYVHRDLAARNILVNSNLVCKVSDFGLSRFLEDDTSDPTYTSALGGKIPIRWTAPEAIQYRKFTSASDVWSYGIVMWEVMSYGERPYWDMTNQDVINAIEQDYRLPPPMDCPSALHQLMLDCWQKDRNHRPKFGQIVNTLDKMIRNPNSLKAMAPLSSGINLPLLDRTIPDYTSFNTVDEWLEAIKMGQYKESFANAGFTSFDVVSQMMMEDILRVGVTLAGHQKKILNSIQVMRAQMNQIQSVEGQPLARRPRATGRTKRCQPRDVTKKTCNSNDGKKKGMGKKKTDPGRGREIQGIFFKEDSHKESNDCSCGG

[8] = target: MAPK7 (UniProt Q13164)
[9] = target: FGFR2 (UniProt P21802)
[10] = target: T2, MAP4K2 (UniProt Q12851)
T2 sequence (whole entry): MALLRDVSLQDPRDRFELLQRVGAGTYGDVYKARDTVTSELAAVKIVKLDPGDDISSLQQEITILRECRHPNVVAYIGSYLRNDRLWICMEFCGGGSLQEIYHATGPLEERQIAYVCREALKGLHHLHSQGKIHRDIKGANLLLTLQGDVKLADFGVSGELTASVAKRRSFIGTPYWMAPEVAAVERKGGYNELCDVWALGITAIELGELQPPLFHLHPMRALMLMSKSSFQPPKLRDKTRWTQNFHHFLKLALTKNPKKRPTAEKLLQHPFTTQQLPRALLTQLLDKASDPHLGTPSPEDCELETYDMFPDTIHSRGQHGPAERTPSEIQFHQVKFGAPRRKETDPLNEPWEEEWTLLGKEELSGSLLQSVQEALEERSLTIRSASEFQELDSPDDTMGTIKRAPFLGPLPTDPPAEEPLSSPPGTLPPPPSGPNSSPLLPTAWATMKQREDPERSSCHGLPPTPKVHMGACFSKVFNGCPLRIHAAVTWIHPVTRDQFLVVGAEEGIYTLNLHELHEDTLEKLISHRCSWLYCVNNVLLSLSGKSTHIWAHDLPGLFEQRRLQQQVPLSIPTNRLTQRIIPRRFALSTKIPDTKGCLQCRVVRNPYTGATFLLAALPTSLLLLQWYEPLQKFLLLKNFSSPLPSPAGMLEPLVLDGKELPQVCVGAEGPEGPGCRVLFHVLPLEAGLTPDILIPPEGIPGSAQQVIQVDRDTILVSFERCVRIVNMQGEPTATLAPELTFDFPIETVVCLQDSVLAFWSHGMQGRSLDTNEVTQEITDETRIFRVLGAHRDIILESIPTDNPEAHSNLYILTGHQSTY

[11] = target: MAP2K2 (UniProt P36507)
[12] = target: IRAK4 (UniProt Q9NWZ3)

apparent dissociation constant pKd app (-log10) [1] | apparent dissociation constant pKd app (-log10) [2] | apparent dissociation constant pKd app (-log10) [3] | apparent dissociation constant pKd app (-log10) [4] | apparent dissociation constant pKd app (-log10) [5] | apparent dissociation constant pKd app (-log10) [6] | apparent dissociation constant pKd app (-log10) [7] | apparent dissociation constant pKd app (-log10) [8] | apparent dissociation constant pKd app (-log10) [9] | apparent dissociation constant pKd app (-log10) [10] | apparent dissociation constant pKd app (-log10) [11] | apparent dissociation constant pKd app (-log10) [12] | Structure (SMILES)
< 4.6 | < 4.6 | < 4.8 | < 4.6 | < 4.7 | < 4.7 | < 4.6 | < 4.6 | < 4.7 | < 4.6 | < 4.5 | < 4.6 | O=C(c1cc(Cc2n[nH]c(=O)c3ccccc23)ccc1F)N1CCN(C(=O)C2CC2)CC1 [Olaparib]
< 4.6 | < 4.6 | < 4.8 | < 4.6 | < 4.7 | < 4.7 | < 4.6 | < 4.6 | < 4.7 | < 4.6 | < 4.5 | < 4.6 | NC(=O)c1cccc2cn(-c3ccc([C@@H]4CCCNC4)cc3)nc12 [Niraparib]
< 4.6 | < 4.6 | < 4.8 | < 4.6 | < 4.7 | < 4.7 | < 4.6 | < 4.6 | < 4.7 | < 4.6 | < 4.5 | < 4.6 | Cn1ncnc1[C@H]1c2n[nH]c(=O)c3cc(F)cc(c23)N[C@@H]1c1ccc(F)cc1 [Talazoparib]
